The test addresses T1, recombinant ALOX5 (Homo sapiens, UniProt P09917).
T1 sequence (P09917 1-674): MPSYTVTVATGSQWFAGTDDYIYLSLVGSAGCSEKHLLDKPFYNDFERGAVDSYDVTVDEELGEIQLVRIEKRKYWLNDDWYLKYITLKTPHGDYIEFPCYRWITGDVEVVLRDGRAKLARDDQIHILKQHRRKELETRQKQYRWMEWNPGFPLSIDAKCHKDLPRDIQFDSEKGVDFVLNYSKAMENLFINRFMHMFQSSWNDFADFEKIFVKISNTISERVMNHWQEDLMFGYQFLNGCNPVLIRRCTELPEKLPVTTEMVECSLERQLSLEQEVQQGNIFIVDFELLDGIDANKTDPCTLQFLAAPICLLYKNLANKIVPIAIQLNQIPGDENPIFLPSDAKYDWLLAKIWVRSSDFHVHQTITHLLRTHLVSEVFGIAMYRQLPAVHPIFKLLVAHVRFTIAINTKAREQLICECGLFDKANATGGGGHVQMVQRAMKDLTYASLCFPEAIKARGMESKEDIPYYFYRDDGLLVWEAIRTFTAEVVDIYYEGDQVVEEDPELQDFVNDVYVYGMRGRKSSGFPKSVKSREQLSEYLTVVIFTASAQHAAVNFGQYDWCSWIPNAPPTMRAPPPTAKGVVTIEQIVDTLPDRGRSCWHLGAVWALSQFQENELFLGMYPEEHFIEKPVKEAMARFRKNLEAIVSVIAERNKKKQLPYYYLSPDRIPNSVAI
As to the kind of experiment: Lipoxygenase UV/Vis-based IC50 assay with recombinant ALOX5. The test is classed as biochemical. The settings on record: test tube assay. The protocol: Lipoxygenase UV/Vis-based IC50 assay: Inhibition potencies were determined by following the formation of conjugated diene products, 5-HpETE [ε=27000 M^−1 cm^−1 for AA turnover) at 234 nm using a UV/Vis spectrophotometer. All reaction mixtures were 2 mL in volume, and the reaction mixtures were constantly stirred using a magnetic stir bar at room temperature (23° C.). All reactions were carried out in a buffer containing 200 μM ATP and 10 μM AA. The AA concentration of a sample was verified by full turnover with soybean-1 lipoxygenase and quantifying the product concentration. Inhibitors were stored in DMSO at −20° C. Enzymatic reactions were initiated by adding approximately 100 nM-300 nM ammonium sulfate-precipitated wildtype enzyme. IC50 values were obtained by determining the enzymatic rate at a minimum of five inhibitor concentrations, plotting the enzymatic rate against inhibitor concentration, and performing a hyperbolic saturation curve fit. Inhibitor concentrations were assayed in duplicate or triplicate.
Significance was determined by two-way ANOVA and Bonferroni's post hoc test.

Each structure is given as a SMILES string.

Consider `CC(=O)N(O)C/C=C/c1cccc(Oc2ccccc2)c1` [BW A4C], for which the “Inhibition of ALOX5 activity” value was “effective in inhibiting ALOX5”.

The values are drawn from US11963939B2, “Use of N-acetylcysteine to treat central nervous system disorders” (Neuronasal, Inc., priority 2017, dated 2024).
